Assay [1] deals with cells derived from the tenotomy site 3 weeks after injury (3WLST). The experiment in a line: Transcript levels (qPCR) in cells from the tenotomy site 3 weeks after injury (3WLST) in hypoxia. The settings on record: PX-478; hypoxic conditions.
The subject of assay [2] is caACVR1fl/fl mice injected with cardiotoxin and Ad.cre.
Where [3] appears, read: PX-478, after Ad.cre/cardiotoxin induction.

For the molecule `N[C@@H](Cc1ccc([N+]([O-])(CCCl)CCCl)cc1)C(=O)O`, in assay [1], the Acan transcript level entry was “diminished levels”, the Hif1α transcript level entry was “diminished levels” and the Sox9 transcript level result was “diminished levels”. The “total HO volume” value in assay [2] (PX-478 100 mg/kg i.p. every other day, day 22 after induction, control 18.1 mm^3) came to 0.01 mm^3. Also, the “total HO normalized volume” value in assay [2] (PX-478 100 mg/kg i.p., control = 1.0) is recorded as 0.0. Moreover, in assay [2] (setting [3]), the “Hif1α and Sox9 based on immunostaining” value was “elimination”; the “cartilage or bone based on pentachrome staining” value is “near elimination”.

The values above are taken from patent US10953028B2, “Method of treating heterotopic ossification” (THE REGENTS OF THE UNIVERSITY OF MICHIGAN, priority 2015, dated 2021).
